From ChEMBL document CHEMBL3112548, “Synthesis and biological evaluation of novel tetrahydro-β-carboline derivatives as antitumor growth and metastasis agents through inhibiting the transforming growth factor-β signaling pathway” (J Med Chem, 2014)

Experiments:
[1] = system: A549; experiment: Antimigratory activity against human A549 cells assessed as decrease in cell migration after 12 hrs by wound healing assay; type: functional, cell-based
[2] = system: NCI-H1299; experiment: Antimigratory activity against human H1299 cells assessed as decrease in cell migration after 12 hrs by wound healing assay; type: functional, cell-based

O=C(Cc1ccccc1)N1CCc2c([nH]c3ccccc23)C1
Activity [1]: Dose-dependent effect
Activity [2]: Dose-dependent effect
